In patent publication US11173137B2, “Compositions and methods to modulate chloride ion channel activity” (The Board of Trustees of the Leland Stanford Junior …, priority 2018, dated 2021) one finds IC50 data, which are given here for 1 compound.

Protein sequences, listed by entry. Tags and fused reporters are not part of them. Lines headed by an entry give the natural chain unless they say otherwise; changes in a name come on top.
UniProt P51788: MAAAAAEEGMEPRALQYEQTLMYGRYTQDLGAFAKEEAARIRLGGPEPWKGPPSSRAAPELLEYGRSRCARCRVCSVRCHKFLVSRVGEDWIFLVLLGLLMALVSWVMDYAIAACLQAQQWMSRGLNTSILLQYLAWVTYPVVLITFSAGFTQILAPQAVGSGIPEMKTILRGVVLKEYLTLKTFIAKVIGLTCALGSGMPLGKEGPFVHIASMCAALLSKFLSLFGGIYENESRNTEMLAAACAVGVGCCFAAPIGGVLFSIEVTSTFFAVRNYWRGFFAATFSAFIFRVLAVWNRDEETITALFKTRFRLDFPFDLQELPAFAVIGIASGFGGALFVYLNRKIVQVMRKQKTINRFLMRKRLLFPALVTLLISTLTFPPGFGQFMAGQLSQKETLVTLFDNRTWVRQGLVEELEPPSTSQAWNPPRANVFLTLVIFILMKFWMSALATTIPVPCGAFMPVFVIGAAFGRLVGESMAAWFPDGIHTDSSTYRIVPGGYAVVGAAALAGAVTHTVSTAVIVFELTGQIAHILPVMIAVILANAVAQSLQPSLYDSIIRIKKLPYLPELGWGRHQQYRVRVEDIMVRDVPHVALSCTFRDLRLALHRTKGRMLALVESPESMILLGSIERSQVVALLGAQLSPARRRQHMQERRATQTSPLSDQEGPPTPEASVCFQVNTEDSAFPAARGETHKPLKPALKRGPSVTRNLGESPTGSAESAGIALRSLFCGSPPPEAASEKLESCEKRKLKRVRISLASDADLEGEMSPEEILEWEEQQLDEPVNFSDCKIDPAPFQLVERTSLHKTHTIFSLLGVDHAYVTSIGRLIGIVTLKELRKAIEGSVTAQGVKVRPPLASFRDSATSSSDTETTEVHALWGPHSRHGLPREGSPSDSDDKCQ

The test concerns the target CLC-2 (Homo sapiens (Human), UniProt P51788). The experiment in a line: IonWorks Barracuda automated patch-clamp electrophysiology, human CLC-2 cell line. Type of test: cell-based. To be noted: n = 4 cells, four concentrations of each compound, read-out: IC50 (μM) against CLC-2. The source says:
FIG. 8, panels A and B depict graphically the Selectivity between CLC-1 and CLC-2. […]

In general, IC50 refers to the point on the concentration scale where inhibition reaches its midpoint. `O=C(O)Cc1ccccc1Nc1c(Cl)cccc1Cl` [Diclofenac, reference compound]: the half-inhibitory concentration (IC50) was above 363 µM.
